Test results from patent US20140107021A1 (priority 2010, published 2014).

Amino acid sequences for entries named in this document (tags omitted). Residues count along the entry.
UniProt P43220, 24-463: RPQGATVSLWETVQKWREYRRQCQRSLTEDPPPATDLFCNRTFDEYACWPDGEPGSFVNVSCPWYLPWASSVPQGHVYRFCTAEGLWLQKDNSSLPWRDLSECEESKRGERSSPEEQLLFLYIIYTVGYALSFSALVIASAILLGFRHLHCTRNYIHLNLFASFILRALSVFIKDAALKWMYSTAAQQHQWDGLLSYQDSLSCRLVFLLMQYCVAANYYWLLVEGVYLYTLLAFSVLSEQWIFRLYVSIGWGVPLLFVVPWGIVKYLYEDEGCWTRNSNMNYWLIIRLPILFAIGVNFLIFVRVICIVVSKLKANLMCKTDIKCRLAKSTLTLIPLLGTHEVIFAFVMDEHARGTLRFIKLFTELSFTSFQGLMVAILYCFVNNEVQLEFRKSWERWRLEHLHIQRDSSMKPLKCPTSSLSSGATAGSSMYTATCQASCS

Target: T1, GLP-1 receptor (Homo sapiens, UniProt P43220)
T1 construct: expressed in transfected cells; host or cells: HEK293
Experiment: cAMP induction at the GLP-1 receptor (agonist activity), firefly luciferase reporter assay in HEK293 cells
Assay type: cell-based
Conditions: read-out: GLP-1 (EC50); Table 2

For Native GLP-1 [reference compound], the EC50 was 40 pM.
